Data: patent EP2492354A1, “Method for identifying compounds useful in the treatment of photosensitive reflex epilepsy” (Institut National De La Recherche Agronomique (INRA), priority 2011, dated 2012)

Test system: Fepi
Assay: Intermittent Light Stimulation (ILS) induced seizures in the photosensitive reflex epileptic chicken model
Assay type: in vivo
Details: treated (50, 100 or 2000 mg/Kg, intraperitoneal, 10 days) versus placebo homozygous; ILS 14 flashes per second; p-value 9 e-07
Method: The inventors have tested the antiepileptic effect of LEVETIRACETAM (Keppra®, UCB PHARMA) in the chicken model according to the invention.
71 Fepi 3-5 months old and identified for ILS seizures at the birth were tested with LEVETIRACETAM.
During 21 days, they were exposed to ILS (3 minutes) once a day.
Behavioural activities were observed and time recorded for each phase of the paroxysmal manifestation during controlled intermittent light stimulation: • T0: ILS starts • T1 (time in seconds): neck myoclonus starts • T2 (time in seconds): convulsive phase starts • T3 (time in seconds): convulsive phase ends
The first day they were tested for control and all had ILS induced seizures.
The following 10 days all the animals received an intraperitoneal injection, 18 animals with 200 mg/kg of LEVETIRACETAM, 17 with 100 mg/kg, and 18 with 50 mg/kg, while 18 control animals received a placebo injection. […]
During the last 10 days, none of the animals was treated.
The influence of the treatment on the stimulus locked myoclonus and generalized convulsions of the photosensitive GRS was evaluated using generalized linear models implemented in the function glm of the software R, version 2.9.0. The number of seizures for each animal over a given phase of the experiment (with treatment and following treatment) was modeled using a binomial distribution, and linked to factors using the logit function. […]

With `CC[C@@H](C(N)=O)N1CCCC1=O` [LEVETIRACETAM, (S)-a-ethyl-2-oxo-1-pyrrolidine acetamide] the “seizure number (odds ratio)” value was 0.03.
